Measured values reported in publication PMC11979947, “Modeling Krebs cycle from liver, heart and hepatoma mitochondria, supported Complex I as target for specific inhibition of cancer cell proliferation” (Frontiers in Oncology, 2025).

Key:
[1] = target: T1, IDH-NAD (Rattus norvegicus, UniProt Q99NA5); experiment: IDH-NAD enzyme kinetics in AS-30D hepatoma mitochondria (HepM); format: biochemical; settings: 37°C
T1 construct: stored at -70°C until use for determination of enzyme activities and Western blotting; from tissue; host or cells: mitochondria isolated from rat liver (RLM), solubilised with 0.02% Triton X-100
T1 sequence (Q99NA5 28-366): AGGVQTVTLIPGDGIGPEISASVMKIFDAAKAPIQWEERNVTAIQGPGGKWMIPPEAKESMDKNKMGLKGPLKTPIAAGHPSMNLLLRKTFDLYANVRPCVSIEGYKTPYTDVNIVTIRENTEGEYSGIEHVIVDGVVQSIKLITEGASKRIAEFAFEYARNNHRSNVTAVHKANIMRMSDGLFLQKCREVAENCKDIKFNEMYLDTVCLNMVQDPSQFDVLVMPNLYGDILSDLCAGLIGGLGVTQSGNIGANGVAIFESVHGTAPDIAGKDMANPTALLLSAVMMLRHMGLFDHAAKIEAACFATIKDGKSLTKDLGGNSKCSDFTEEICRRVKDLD
T1 sequence (Q68FX0 35-385 partner): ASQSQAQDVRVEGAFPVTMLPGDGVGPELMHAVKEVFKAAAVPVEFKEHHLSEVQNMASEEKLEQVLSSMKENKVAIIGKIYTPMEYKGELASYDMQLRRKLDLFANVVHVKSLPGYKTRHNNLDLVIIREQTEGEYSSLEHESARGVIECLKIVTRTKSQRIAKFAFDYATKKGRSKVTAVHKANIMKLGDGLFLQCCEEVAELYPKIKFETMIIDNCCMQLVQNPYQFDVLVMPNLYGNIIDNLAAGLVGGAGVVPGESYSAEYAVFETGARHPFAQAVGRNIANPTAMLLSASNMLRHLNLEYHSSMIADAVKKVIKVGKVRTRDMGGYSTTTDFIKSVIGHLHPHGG
T1 sequence (P41565 40-393 partner): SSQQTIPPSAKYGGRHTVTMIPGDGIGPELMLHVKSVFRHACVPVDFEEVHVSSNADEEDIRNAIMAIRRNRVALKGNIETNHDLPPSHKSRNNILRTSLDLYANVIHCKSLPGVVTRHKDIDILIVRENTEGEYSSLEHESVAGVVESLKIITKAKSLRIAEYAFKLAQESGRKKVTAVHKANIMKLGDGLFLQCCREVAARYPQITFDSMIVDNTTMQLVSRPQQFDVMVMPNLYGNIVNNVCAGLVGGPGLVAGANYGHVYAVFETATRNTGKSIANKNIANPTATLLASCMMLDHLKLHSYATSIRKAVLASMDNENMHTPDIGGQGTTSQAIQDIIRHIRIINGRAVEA
Experimental: (§1) Rat liver (RLM), rat heart (RHM) and AS-30D rat hepatoma (HepM) mitochondria were prepared as previously described ([20]–[22]). All animals were manipulated according to the guidelines NOM-062-ZOO-1999 (Norma Oficial Mexicana) for the care and use of laboratory animals, and the project received approval from the Internal Committee for the Care and Use of Laboratory Animals (CICUAL) with number INC/CICUAL/004/2021 from Instituto Nacional de Cardiología Ignacio Chávez. […]
(§2) The mitochondrial activities of ACO, IDH-^NAD, IDH-^NADP, 2OGDH, SDH, FH, MDH, Aspartate aminotransferase (AST), ME, glutamate dehydrogenase (GDH), alanine aminotransferase (ALT) and PDH were determined spectrophotometrically at 340 nm ([13], [25]) and 37°C, except where indicated. […]
(§3) CS activity was determined as CoA liberation by its thiol reaction with DTNB monitored at 412 nm ([13], [25]); the standard assay contained 0.1 mM DTNB, 0.003-0.3 mM AcCoA, 0.005-0.2 mM OAA (freshly prepared) and 0.003-0.006 mg of mitochondrial protein. […] IDH^-NADP activity was determined with 0.01-1 mM NADP^+, 0.1 mM MgCl2, 0.015-1.5 mM DL-Iso and 0.1-0.2 mg of mitochondrial protein. […] SDH assay contained 0.075 mM DCPIP, 0.4 mM PMS, 0.1-10 mM Suc and 0.025-0.12 mg of protein; the reaction was monitored at 600 nm. […]

[2] = target: T1, IDH-NAD; experiment: IDH-NAD enzyme kinetics in rat liver mitochondria (RLM); format: biochemical; settings: 37°C
Experimental: as §1, §2, §3

[3] = pH 7.20, read-out: Ki NADH vs Iso
[4] = pH 7.20, read-out: Ki NADH vs NAD+

## NADH
[1]; [3]
  Ki: 40 ± 8 µM
[1]; [4]
  Ki: 80 ± 10 µM
[2]; [3]
  Ki: 30 ± 17 µM
[2]; [4]
  Ki: 50 ± 20 µM
